# Only a part is listed here, and it is no random draw. Inconclusive results are not listed. Some structures show a salt or complex split into parts, the way the source records it. The source made the active and inactive calls. Calls follow the shape of the dose curve; as a rule, active = well fitted activation curve with a large enough effect; inconclusive = small, poorly fitted or top-dose-only effect; inactive = no such curve, though single readings can be large or run the other way.
# Assay: qHTS screen for small molecules that induce genotoxicity in human embryonic kidney (HEK293T) cells expressing luciferase-tagged ELG1; also: % of control where 0% means no effect; nearly all actives have a fitted effect of over 60% in size
# Settings: HEK293T ELG1-luciferase reporter, luminescence, 16 h; at 46 µM (top of the series)
# Excerpt: NIH Molecular Libraries Probe Production Network [MLPCN] NIH Chemical Genomics Center [NCGC] MLPCN Grant: 1 R03 MH092164-01 Assay Provider: Kyungjae Myung, NHGRI, NIH Keywords: MLPCN, qHTS, NCGC, genotoxicity, cancer Assay Overview: Cancer cells divide rapidly compared to normal cells in the body. During cell division, cancer cells need to duplicate their genome by DNA replication. The failure of genome duplication leads to cancer cells' death. Therefore, inhibitors of DNA replication could specifically kill cancer cells. Based on this concept, many chemotherapeutic agents were developed and have been used to treat cancer patients. However, there are a limited number of agents available in the clinical setting, and some of those that do exist have low efficacy and severe side effects. Therefore, if we can find the compounds that effectively block DNA replication either by directly damaging DNA or by inhibiting other cellular mechanisms, the options for cancer treatment will be broadened. With this in mind, we developed a quantitative high-throughput ELG1-luciferase reporter gene assay. Since the level of human ELG1 protein is enhanced in response to genetic stresses, increases in luciferase activity can be used to identify compounds that cause genetic stress.
# Assay Protocol Summary: For genotoxicity screening, 2,000 cells in 5 uL/well were dispensed into white, solid-bottom 1536-well plates using a solenoid-based dispenser. Following transfer of 23 nL compound or DMSO vehicle by a pin tool, the plates were incubated 16 hr at 37 °C and 5% CO2. 5 ul ONE-Glo (Promega) was then added to each plate and following a 30 min incubation at room temperature, luciferase activity was quantified on a ViewLux CCD-based plate reader.
row,Structure (SMILES),"activity change, positive = activation"
1,CC(C)(C)OC(=O)N1CCC(Nc2ccccc2)CC1,inactive: -4.67%
2,O=C(O)C1(Nc2ccccc2)CCN(Cc2ccccc2)CC1,inactive: -2.16%
3,CCCOc1ccc(C(=O)NCC2(N(C)C)CCCCC2)cc1,inactive: 0.0406%
4,CCOc1ncccc1C(=O)NCC1(N2CCOCC2)CCCCC1,inactive: -0.527%
5,CN1CCC(Nc2ccc(F)c(Cl)c2)CC1,inactive: -2.06%
6,CN1CCC(Nc2ccc(Cl)cc2)CC1,inactive: 1.63%
7,CCCOc1ccc(C)cc1CN(CCCl)CCCl,inactive: -7.93%
8,COc1cccc(C(=O)N(c2cc(C)cc(C)c2)C2CCN(C(=O)OC(C)(C)C)CC2)c1,inactive: -14%
9,COc1cc(OC)cc(C(=O)NCC2(N3CCOCC3)CCCCC2)c1,inactive: -2.39%
10,CCC(CO)(C(=O)OC1CN2CCC1CC2)c1ccccc1 (configuration not stated),inactive: -2.84%
11,Cc1ccc(C(=O)NCC2(N3CCCCC3)CCCCC2)o1,inactive: 1.4%
12,Fc1ccccc1NC1CCN(Cc2ccccc2)CC1,inactive: -1.17%
13,COc1cc(OC)cc(C(=O)NCC2(N3CCCCC3)CCCCC2)c1,inactive: -12.8%
14,O=C(NCC1(N2CCCCC2)CCCCC1)c1ccco1,inactive: -3.74%
15,CN(C)c1ccc(C(=O)NCC2(N3CCCCC3)CCCCC2)cc1,inactive: 0.359%
16,CCN1CCC(Nc2cccc(F)c2)CC1,inactive: 0.233%
17,CCOC(=O)C(CC)C1=NC(C)(C)Cc2ccccc21.O=[N+]([O-])c1cc([N+](=O)[O-])c(O)c([N+](=O)[O-])c1 (configuration not stated),inactive: -0.167%
18,N#Cc1ccc(C(=O)NCC2(N3CCCCC3)CCCCC2)cc1,inactive: -3.16%
19,CC(C)(C)OC(=O)N1CCC(N(C(=O)c2ccccc2)c2ccc(Cl)cc2)CC1,inactive: -10.1%
20,CN(C)C1(CNC(=O)c2cccc(C#N)c2)CCCCC1,inactive: 0.112%
21,c1ccc(CN2CCC(Nc3ccccc3)CC2)cc1,inactive: 4.65%
22,CCCN1CCC(Nc2cc(OC)cc(OC)c2)CC1,inactive: -2.32%
23,COc1ccc(C(=O)NCC2(N3CCOCC3)CCCCC2)cc1OC,inactive: 6.72%
24,COc1cc(C(=O)NCC2(N3CCOCC3)CCCCC2)cc(OC)c1C,inactive: -4.45%

row,Structure (SMILES),"activity change, positive = activation"
1,O=C(NCC1(N2CCOCC2)CCCCC1)c1cc(Br)ccc1Cl,inactive: -1.44%
2,O=C(OC1CN2CCC1CC2)C1c2ccccc2C=Cc2ccccc21 (configuration not stated),inactive: -2.5%
3,CCc1cc(C(=O)NCC2(N3CCCCC3)CCCCC2)sc1C,inactive: 0.524%
4,O=C(O)c1cccc(Nc2c([N+](=O)[O-])cc([N+](=O)[O-])cc2[N+](=O)[O-])c1,inactive: 0.307%
5,CCOC(=O)N1CCC(Nc2ccc(C)cc2)CC1,inactive: -3.03%
6,N/C(=N\O)c1c(N)no[n+]1[O-],inactive: -1.25%
7,COc1cc(OC)c(C(=O)NCC2(N(C)C)CCCCC2)cc1OC,inactive: -2.37%
8,O=C(NCC1(N2CCOCC2)CCCCC1)c1cc(F)c(F)cc1Cl,inactive: -0.0361%
9,CC(C)c1ccc(NC2CCN(C(=O)OC(C)(C)C)CC2)cc1,inactive: 11.2%
10,COc1ccc(CN(CCCl)CCCl)cc1Cl,inactive: -0.0495%
11,CN(C)c1cccc(C(=O)NCC2(N3CCCCC3)CCCCC2)c1,inactive: 4.65%
12,O=[N+]([O-])c1cc([N+](=O)[O-])c(OC2CCCCC2O)c([N+](=O)[O-])c1 (configuration not stated),inactive: -2.94%
13,CCCOc1ccc(C(=O)NCC2(N(C)C)CCCCC2)cc1OC,inactive: 4.37%
14,O=C(OC1CN2CCC1CC2)c1ccc([N+](=O)[O-])cc1 (configuration not stated),inactive: -0.532%
15,O=C(NCC1(N2CCCCC2)CCCCC1)c1cncc(Br)c1,inactive: 2.38%
16,COc1ccc2c(c1O)-c1c(O)c(OC)cc3c1[C@H](C2)[N+](C)(C)CC3.O=[N+]([O-])c1cc([N+](=O)[O-])c([O-])c([N+](=O)[O-])c1[O-],inactive: -0.62%
17,CCN1CCC(Nc2ccc(Cl)cc2)CC1,inactive: -0.065%
18,N#CC1(Nc2ccccc2)CCN(CCc2ccccc2)CC1,inactive: 1.07%
19,O=C(NCC1(N2CCCCC2)CCCCC1)c1cccc([N+](=O)[O-])c1,inactive: 0.324%
20,CSc1ccc(C(=O)NCC2(N3CCOCC3)CCCCC2)cc1,inactive: -1.29%
21,O=C(NCC1(N2CCOCC2)CCCCC1)c1cc(=O)[nH]c2ccccc12,inactive: 4.94%
22,COc1cc(C(=O)NCC2(N3CCCCC3)CCCCC2)ccc1OC(F)F,inactive: 0.393%
23,COc1ccc(NC2CCN(C(=O)OC(C)(C)C)CC2)cc1,inactive: -3.55%
24,CC(C)c1ccc(C(=O)NCC2(N3CCOCC3)CCCCC2)cc1,inactive: -0.106%

row,Structure (SMILES),"activity change, positive = activation"
1,CN1CCN(CCOC(=O)C(O)(c2ccccc2)c2ccccc2)CC1,inactive: -0.423%
2,O=[N+]([O-])c1cc([N+](=O)[O-])c(NCC2CCS(=O)(=O)C2)c([N+](=O)[O-])c1 (configuration not stated),inactive: -3.7%
3,O=C(NCC1(N2CCCCC2)CCCCC1)c1cccc(C(F)(F)F)c1,inactive: 8.2%
4,CCCCOc1ccc(C(=O)NCC2(N3CCOCC3)CCCCC2)cc1,inactive: -0.44%
5,CCOC(=O)N1CCC(Nc2ccc(F)cc2)CC1,inactive: -0.259%
6,COc1ccc(NC2CCN(CCc3ccccc3)CC2)c(OC)c1,inactive: 0%
7,CCOc1ccc(C)cc1CN(CCCl)CCCl,inactive: -5.99%
8,COc1cc(C(=O)NCC2(N(C)C)CCCCC2)ccc1OC(F)F,inactive: -0.58%
9,CCOC(=O)N1CCC(Nc2cccc(C)c2)CC1,inactive: -0.871%
10,Cc1ccc(OCC(C)C)c(CN(CCCl)CCCl)c1,inactive: -2.77%
11,CSc1ccccc1C(=O)NCC1(N2CCCCC2)CCCCC1,inactive: -0.0438%
12,COc1ccc(C(=O)NCC2(N3CCCCC3)CCCCC2)cc1,inactive: 5.61%
13,COc1ccc(C(=O)NCC2(N3CCCCC3)CCCCC2)c(OC)c1OC,inactive: -0.412%
14,CC(C)(C)OC(=O)N1CCC(N(C(=O)c2ccccc2)c2ccc(F)cc2)CC1,inactive: -3.13%
15,O=C(NCC1(N2CCCCC2)CCCCC1)c1ccc(=O)[nH]c1,inactive: 5.41%
16,O=C(NCC1(N2CCCCC2)CCCCC1)c1cccs1,inactive: 0.638%
17,O=C(OC1CN2CCC1CC2)C1c2ccccc2Oc2ccccc21 (configuration not stated),inactive: -2.01%
18,O=C(NCC1(N2CCCCC2)CCCCC1)c1ccc(Cl)s1,inactive: 1.23%
19,N#CC1(Nc2ccccc2)CCN(Cc2ccccc2)CC1,inactive: -1.38%
20,COc1ccc(Cl)cc1C(=O)NCC1(N2CCOCC2)CCCCC1,inactive: -4.43%
21,CCOC(=O)N1CCC(Nc2ccc(OC)cc2)CC1,inactive: -2.84%
22,O=C(NCC1(N2CCCCC2)CCCCC1)c1ccc(Cl)nc1,inactive: -0.627%
23,Cc1cc(C)cc(N(C(=O)c2ccccc2)C2CCN(C(=O)OC(C)(C)C)CC2)c1,inactive: -10.1%
24,O=C(NCC1(N2CCOCC2)CCCCC1)c1cc2ccccc2o1,inactive: -5.85%

# Source: PubChem BioAssay AID504466 (National Center for Advancing Translational Sciences (NCATS), 2011)
